Results on one substance are retold here after patent publication US20250154250A1, “CEACAM5 ADC-ANTI-PD1/PD-L1 COMBINATION THERAPY” (SANOFI, priority 2021, published 2025).

The target in series [1] is T1, recombinant human CEACAM5 (Homo sapiens, UniProt P06731).
T1 sequence (P06731 35-676): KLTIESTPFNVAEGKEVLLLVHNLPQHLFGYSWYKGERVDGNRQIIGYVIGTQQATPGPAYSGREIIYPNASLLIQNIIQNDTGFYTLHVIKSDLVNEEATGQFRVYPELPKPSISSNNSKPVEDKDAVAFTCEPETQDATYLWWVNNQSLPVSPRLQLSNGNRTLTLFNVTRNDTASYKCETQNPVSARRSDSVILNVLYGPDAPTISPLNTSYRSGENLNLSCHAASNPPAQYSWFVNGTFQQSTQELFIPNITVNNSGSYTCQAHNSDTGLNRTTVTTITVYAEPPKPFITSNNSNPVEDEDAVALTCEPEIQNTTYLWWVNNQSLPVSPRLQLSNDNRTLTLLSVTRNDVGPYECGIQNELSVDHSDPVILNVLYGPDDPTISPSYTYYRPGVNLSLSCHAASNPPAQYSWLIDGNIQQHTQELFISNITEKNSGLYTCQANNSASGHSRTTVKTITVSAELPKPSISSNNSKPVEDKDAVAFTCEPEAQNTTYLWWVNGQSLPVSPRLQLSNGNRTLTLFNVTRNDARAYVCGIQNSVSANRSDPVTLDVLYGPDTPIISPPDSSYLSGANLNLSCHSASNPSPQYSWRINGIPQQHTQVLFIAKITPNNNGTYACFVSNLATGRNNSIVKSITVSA
Kind of series: ELISA binding to recombinant human CEACAM5. Particulars: read-out: affinity (ELISA). The source says:
“Affinity” is defined, in theory, by the equilibrium association between the whole antibody and the antigen. It can be experimentally assessed by a variety of known methods, such as measuring association and dissociation rates with surface plasmon resonance or measuring the EC50 (or apparent KD) in an immunochemical assay (ELISA, FACS). In these assays, the EC50 is the concentration of the antibody which induces a response halfway between the baseline and maximum after some specified exposure time on a defined concentration of antigen by ELISA (enzyme-linked immuno-sorbent assay) or cell expressing the antigen by FACS (Fluorescence Activated Cell Sorting).
Affinity for human CEACAM5 or for Macaca fascicularis CEACAM5 may be determined as the EC50 value in an ELISA using soluble recombinant CEACAM5 as capture antigen.

Series [2] concerns heavily pre-treated high CEACAM5 expressers. Particulars: monotherapy.
The subject of series [3] is tumor cells. Particulars: see WO 2014/079886; cited from earlier work.

For tusamitamab ravtansine, the EC50 in series [1] is around 0.02 nM. Moreover, the “Most common Adverse Drug Reactions (ADRs)” value in series [2] was “ocular toxicity (reversible without treatment discontinuation), and minimal hematological/nerve toxicity”. Besides, the “cytotoxic activity on tumor cells in vitro” value in series [3] is “induce cytotoxic activity”.
